From patent US8895756B2, “Bendamustine pharmaceutical compositions” (priority 2005, dated 2014) come the findings set out here.

For series [1] the following is noted: 30% (v/v) TBA, 15 mg/mL bendamustine, 25.5 mg/mL mannitol.
The nature of series [2]: Reconstitution time of lyophilized bendamustine. Conditions: lyophilized vials from 10% ethanol, 20% ethanol, 10% iso-propanol, 20% iso-propanol solutions (15 mg/mL bendamustine, 25.5 mg/mL mannitol). Type of series: physicochemical. The source says: All alcohols tested increased the stability and solubility of bendamustine. However, a significant mole fraction was required to affect the stability of the filling solution and the ease of manufacturing. Smaller alcohols have the undesirable effect of lowering the freezing point of the bulk solution and thus requiring long lyophilization cycles at lower temperatures. Higher concentrations of methanol and ethanol produced unattractive cakes that were difficult to reconstitute. 10% ethanol, 20% ethanol, 10% iso-propanol, 20% iso-propanol, or 30% TBA aqueous solutions containing bendamustine (15 mg/mL), mannitol (25.5 mg/mL) were prepared and lyophilized. The lyophilized vials filled from solutions of 10% ethanol, 20% ethanol, 10% iso-propanol, 20% iso-propanol produced either a collapsed cake or a film residue. The only solvent system producing an acceptable cake was 30% TBA.
One of the factors affecting the ease of reconstitution is the porosity of the lyophilate. In general, amorphously precipitated solids with little surface area are more difficult to solubilize. […] Based on our experience with several lyophilization solvent systems and not wishing to be bound to any particular theory, the problems associated with Ribomustin® reconstitution may be associated with precipitation caused by melt back during lyophilization. […]

With `Cl.Cn1c(CCCC(=O)O)nc2cc(N(CCCl)CCCl)ccc21` [bendamustine, 4-{5-[Bis(2-chloroethyl)amino]-1-methyl-2-benzimidazolyl}butyric acid], in series [1], the precipitation entry is reported as “no precipitate”. In addition, in series [2], the “reconstitution time until fully dissolved” value was more than 45 min.
